This note sets out measurements from ChEMBL document CHEMBL4602618, “Novel compounds that reverse the disease phenotype in Type 2 Gaucher disease patient-derived cells” (Bioorg Med Chem Lett, 2020).

The species named for this assay is Homo sapiens. The assay is described as follows: Potency index, ratio of EC50 of tamoxifen to EC50 of compound for chaperone activity at GCase L444P GBA gene mutant in human fibroblasts derived from Gaucher patient assessed as increase in GPN-induced reduction of calcium release using Fluo-8AM based fluorescence assay.

Take `CC(C)CCC(C(=O)c1ccc(OCCN(C)C)cc1)c1ccccc1` (stereo unspecified): the Ratio EC50 worked out at 3.
